Binding of CDR-mutated scFvs to a peptide of the spike HR2 region

Data: MIT Lincoln Laboratory AlphaSeq set, Engelhart et al. 2022, doi:10.1038/s41597-022-01779-4, as distributed in FLAb.

The target is the same throughout: PDVDLGDISGINAS, from the HR2 region of SARS-CoV-2 spike.

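Phage display of a naive human antibody library on the peptide gave the parent. Library AAYL51 holds single substitutions and randomly drawn double and triple substitutions in the CDRs. The assay is AlphaSeq: two haploid yeast populations carry antibody and antigen on their surface. The frequency of each diploid, read from paired DNA barcodes, reflects how well the two displayed proteins bind. Each replicate has its own calibration line, from reference interactions of the BCL2 family. Each pool was mated in three replicate cultures.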

The variants keep the light chain, the linker and the frameworks of Ab-91 (scFv order VL, a 15-residue (Gly4Ser)3 linker, VH).
VL: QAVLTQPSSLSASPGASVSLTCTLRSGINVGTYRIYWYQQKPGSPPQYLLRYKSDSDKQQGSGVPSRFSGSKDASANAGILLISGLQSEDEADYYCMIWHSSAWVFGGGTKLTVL
VH: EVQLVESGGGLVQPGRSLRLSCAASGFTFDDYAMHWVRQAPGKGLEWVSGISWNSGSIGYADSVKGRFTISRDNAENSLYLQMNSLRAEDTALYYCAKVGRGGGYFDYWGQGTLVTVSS

Substitutions are numbered in sequence along the VH above, starting at 1 (not Kabat). Every variant below is changed at G100 of the VH (sequential numbering). Affinities are written as log10 Kd with Kd in nM; a lower number is a better binder. A mean of the replicates is given; it leaves out those without a signal. An entry "nd" has no value in the source: the pair was not observed among the diploids in any replicate. This suggests poor binding but is not conclusive. For reference, the parent read 1.86 as the reference entry and 0.88 as a member of this library.

Variant D30Y/K65P/G100R gave 4.00 (1 of 3 replicates).
Variant G100E/F106W/Y108S gave 2.29 (3 of 3 replicates).
Variant G26D/V99Y/G100L gave 4.47 (1 of 3 replicates).
Variant D30F/S63F/G100Y gave nd (0 of 3 replicates).
Variant A61H/V99P/G100F gave 2.29 (3 of 3 replicates).
Variant I51Q/G56L/G100S gave nd (0 of 3 replicates).
Variant K65G/G100N/D107R gave nd (0 of 3 replicates).
Variant W53L/G100W/G103A gave 4.66 (1 of 3 replicates).
Variant G26R/V99N/G100K gave 3.26 (1 of 3 replicates).
Variant G56P/G100K/G103W gave 4.87 (2 of 3 replicates).
Variant A33E/S55M/G100K gave 6.13 (1 of 3 replicates).
Variant G50Y/G100K/G102P gave 5.61 (2 of 3 replicates).
Variant W53T/G100W gave 4.98 (1 of 3 replicates).
Variant D31V/G100L/Y108P gave 4.48 (1 of 3 replicates).
Variant S55G/G100K/D107M gave 4.99 (2 of 3 replicates).
Variant G26M/A61I/G100R gave 5.09 (3 of 3 replicates).
Variant S57T/V64Y/G100D gave 5.13 (2 of 3 replicates).
Variant F29W/S57K/G100N gave nd (0 of 3 replicates).
Variant S63F/G100M/G104M gave 5.22 (2 of 3 replicates).
Variant K65Y/G100E/Y105V gave 3.71 (1 of 3 replicates).
Variant G100E gave 3.80 (1 of 3 replicates).
Variant A33F/V64N/G100W gave nd (0 of 3 replicates).
Variant S55F/S57E/G100R gave nd (0 of 3 replicates).
Variant F29H/S63T/G100H gave nd (0 of 3 replicates).
Variant A33F/G100M gave 4.46 (2 of 3 replicates).
Variant G100S/G103C gave 4.26 (2 of 3 replicates).
Variant H35L/G100W/G104Y gave 3.26 (1 of 3 replicates).
Variant S52Y/S63P/G100M gave nd (0 of 3 replicates).
Variant M34F/I58H/G100C gave 5.49 (1 of 3 replicates).
Variant A33Y/G56I/G100R gave 5.08 (2 of 3 replicates).
Variant G59W/K65Y/G100H gave 4.90 (3 of 3 replicates).
Variant A33F/S55V/G100N gave 4.76 (3 of 3 replicates).
Variant M34R/S63W/G100Q gave 5.56 (1 of 3 replicates).
Variant G56Y/G100F gave 5.38 (1 of 3 replicates).

Picked from the list: the 3 lowest averages where every replicate gave a value.

| changes | log10 Kd (nM), mean | replicates with signal |
|---|---|---|
| G100E/F106W/Y108S | 2.29 | 3 of 3 |
| A61H/V99P/G100F | 2.29 | 3 of 3 |
| A33F/S55V/G100N | 4.76 | 3 of 3 |

Nonspecific signal, from three strains lacking the peptide, appeared in 21% of pairings of library AAYL51, centred on 4.54 (5% of these signals below 3.26); values are not corrected for it.